# Binding of CDR-mutated scFvs to a peptide of the spike HR2 region

Reference: Engelhart et al. 2022, doi:10.1038/s41597-022-01779-4. File: FLAb, binding data.

All variants were tested on one target, the spike HR2 peptide PDVDLGDISGINAS (SARS-CoV-2).

Each scFv is VH, the linker GGGGSGGGGSGGGGS, VL, as in the parent Ab-14, and differs from it in the CDRs of the heavy chain only.
VH: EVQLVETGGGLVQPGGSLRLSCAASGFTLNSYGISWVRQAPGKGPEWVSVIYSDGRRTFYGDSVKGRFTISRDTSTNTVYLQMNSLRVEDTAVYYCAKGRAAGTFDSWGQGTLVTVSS
VL: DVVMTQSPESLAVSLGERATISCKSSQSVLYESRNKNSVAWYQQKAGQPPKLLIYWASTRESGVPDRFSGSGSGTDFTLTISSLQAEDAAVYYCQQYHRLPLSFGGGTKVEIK

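The parent was found by panning a naive human phage display library on the peptide. Library AAYL49 holds single substitutions and randomly drawn double and triple substitutions in the CDRs. Affinity was read by AlphaSeq, a pooled yeast mating assay with surface-displayed partners. After mating in shaken culture at 30 °C for 16 h, diploids were selected and their barcode pairs sequenced. Each replicate has its own calibration line, from reference interactions of the BCL2 family. There are three technical replicates.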

Substitutions are numbered in sequence along the VH above, starting at 1 (not Kabat). Affinities are written as log10 Kd with Kd in nM; a lower number is a better binder. Averages over replicates are reported, and they cover detected replicates only. "nd" means that the variant was in the library but no mating with the target was seen in that replicate; the authors take this as a sign of poor binding, and no number exists.

changes,log10 Kd (nM) by replicate,"mean, log10 nM",control signals
G26V/I51G/R100H,4.29 / 2.95 / nd,3.62,2 of 9 (4.29)
I51V/G61N,3.43 / 3.88 / 4.16,3.82,3 of 9 (4.11)
I34P/I51K/G55I,5.76 / nd / nd,5.76,3 of 9 (4.85)
S35M/G99S/D106A,nd / nd / 3.96,3.96,0 of 9
L29I/R57G/G61K,nd / nd / nd,nd,1 of 9 (1.66)
Y52P/S53W/R56G,nd / nd / nd,nd,1 of 9 (3.01)
T28P/F59L/D106A,3.44 / nd / nd,3.44,2 of 9 (2.77)
Y32N/K65S,4.70 / nd / nd,4.70,0 of 9
I34G/G55H/S63A,nd / nd / nd,nd,0 of 9
T58G/D62V/D106I,nd / nd / nd,nd,0 of 9
Y32H/G33D/V64L,5.98 / nd / nd,5.98,1 of 9 (4.29)
G26R/I51H/F59H,3.96 / nd / 4.64,4.30,4 of 9 (4.46)
F27E/D54C/V64T,nd / nd / 4.59,4.59,2 of 9 (3.18)
S53E/R56S/R57S,2.67 / nd / nd,2.67,1 of 9 (3.56)
G99T/A102H/D106C,2.82 / 2.28 / 2.49,2.53,3 of 9 (4.27)
V64M/K65L/A101V,1.46 / 1.51 / 1.59,1.52,0 of 9
Y52I/S63Y/R100W,nd / nd / nd,nd,1 of 9 (5.32)
S53T/S63L/A102E,4.67 / nd / nd,4.67,4 of 9 (3.80)
A101H/D106I/S107F,1.79 / 1.82 / 2.03,1.88,3 of 9 (4.00)
T28F/S35W/I51K,3.99 / nd / 3.70,3.85,4 of 9 (4.06)
V50L/Y52V/F105K,nd / nd / 6.10,6.10,4 of 9 (4.92)
L29E/I51G,4.75 / 4.89 / nd,4.82,4 of 9 (4.20)
L29R/V50M/D106F,nd / nd / nd,nd,1 of 9 (3.88)
I34L/S53G/R100K,3.16 / nd / nd,3.16,2 of 9 (3.96)
Y32K/T58G/Y60E,nd / nd / nd,nd,0 of 9
G55S/T58K/F59E,3.34 / nd / nd,3.34,3 of 9 (4.33)
S53H/F59A/D106Q,2.77 / 2.55 / 2.45,2.59,0 of 9
G33H/I34G/A101D,nd / 3.92 / nd,3.92,0 of 9
T28V/G33D/D62K,4.46 / 3.90 / 3.74,4.04,5 of 9 (4.31)
T28V/S53L/D106Y,nd / nd / nd,nd,0 of 9
Y32H/F105R,nd / nd / nd,nd,0 of 9
F27T/R56W/A101S,3.41 / 4.10 / 5.03,4.18,3 of 9 (5.01)
S53C/D54R/G61S,nd / nd / nd,nd,2 of 9 (3.62)
S53R/D54Q/S63G,nd / nd / nd,nd,0 of 9
F27Y/L29F/S53H,2.73 / 2.90 / 4.77,3.47,3 of 9 (4.58)
S35G/S63W/S107A,nd / nd / 5.74,5.74,3 of 9 (4.12)
T28I/D54V/T58M,nd / 2.61 / 5.24,3.93,2 of 9 (3.46)
G33E/S53Q/K65A,nd / 4.28 / nd,4.28,0 of 9
G33K/S53F/R56V,nd / nd / nd,nd,1 of 9 (3.13)
I34Q/S63M/F105Y,nd / nd / nd,nd,0 of 9
I34Q/Y52P/G99M,5.42 / nd / nd,5.42,0 of 9
I51P/K65L/R100T,nd / nd / nd,nd,1 of 9 (4.13)
Y32A/R56A/A101T,nd / nd / nd,nd,6 of 9 (3.98)
N30L/I34C/G55P,nd / 4.59 / nd,4.59,2 of 9 (3.91)
S35N/A101C/T104D,4.83 / 3.21 / 4.37,4.13,8 of 9 (4.82)
N30H/I51P/A102C,nd / nd / nd,nd,5 of 9 (4.30)
S31Y/S53M/T104P,3.21 / nd / 3.43,3.32,0 of 9

The last 7 entries again:

changes	log10 Kd (nM) by replicate	mean, log10 nM	control signals
I34Q/Y52P/G99M	5.42 / nd / nd	5.42	0 of 9
I51P/K65L/R100T	nd / nd / nd	nd	1 of 9 (4.13)
Y32A/R56A/A101T	nd / nd / nd	nd	6 of 9 (3.98)
N30L/I34C/G55P	nd / 4.59 / nd	4.59	2 of 9 (3.91)
S35N/A101C/T104D	4.83 / 3.21 / 4.37	4.13	8 of 9 (4.82)
N30H/I51P/A102C	nd / nd / nd	nd	5 of 9 (4.30)
S31Y/S53M/T104P	3.21 / nd / 3.43	3.32	0 of 9

Nonspecific signal, from three strains lacking the peptide, appeared in 15% of pairings of library AAYL49, centred on 4.06 (5% of these signals below 2.83); values are not corrected for it. Also given: how often the same scFv was detected with the empty control strains, with their mean in brackets. In this assay the parent's reference entry averaged 0.65; its copy inside this library read 4.11 (one replicate of three).